The results in this text go back to ChEMBL document CHEMBL5625232, “Development of selective class I protein arginine methyltransferase inhibitors through fragment-based drug design approach” (Eur J Med Chem, 2023).

The chains behind the UniProt entries cited, without tags or fusion partners. Where a name states a change or a piece, a line headed by the entry shows the natural chain unless it says otherwise.
UniProt O60678: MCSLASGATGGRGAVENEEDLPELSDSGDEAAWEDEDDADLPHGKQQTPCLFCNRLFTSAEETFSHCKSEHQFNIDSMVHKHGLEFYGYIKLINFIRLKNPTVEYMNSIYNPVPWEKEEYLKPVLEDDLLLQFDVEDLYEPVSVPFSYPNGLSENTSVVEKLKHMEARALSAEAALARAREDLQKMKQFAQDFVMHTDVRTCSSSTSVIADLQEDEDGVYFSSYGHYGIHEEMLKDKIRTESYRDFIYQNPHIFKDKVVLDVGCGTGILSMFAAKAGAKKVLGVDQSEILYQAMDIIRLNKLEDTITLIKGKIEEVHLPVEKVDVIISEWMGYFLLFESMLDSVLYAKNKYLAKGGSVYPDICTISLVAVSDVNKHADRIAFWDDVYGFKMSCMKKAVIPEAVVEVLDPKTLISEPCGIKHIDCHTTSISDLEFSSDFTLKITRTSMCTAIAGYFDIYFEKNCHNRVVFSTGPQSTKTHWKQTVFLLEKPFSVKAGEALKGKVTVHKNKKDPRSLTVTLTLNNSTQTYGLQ

For the experiment, the target named is Protein arginine N-methyltransferase 3 (Homo sapiens, UniProt O60678). Kind of experiment: Displacement of 3H-SAM from human PRMT3 in presence of substrate by SPA assay.

As for `CC(C)Oc1ccc(-c2c[nH]cc2CN(C)CCN)cc1`, the IC50 (commonly the concentration that inhibits the measured activity by half) was 201 µM.
